Results taken from ChEMBL document CHEMBL1145905, “Design and synthesis of novel dimeric morphinan ligands for kappa and micro opioid receptors” (J Med Chem, 2003).

Amino acid sequences for entries named in this document (tags omitted). A change or cut given only in a name is not applied to a line headed by its entry.
UniProt P41145: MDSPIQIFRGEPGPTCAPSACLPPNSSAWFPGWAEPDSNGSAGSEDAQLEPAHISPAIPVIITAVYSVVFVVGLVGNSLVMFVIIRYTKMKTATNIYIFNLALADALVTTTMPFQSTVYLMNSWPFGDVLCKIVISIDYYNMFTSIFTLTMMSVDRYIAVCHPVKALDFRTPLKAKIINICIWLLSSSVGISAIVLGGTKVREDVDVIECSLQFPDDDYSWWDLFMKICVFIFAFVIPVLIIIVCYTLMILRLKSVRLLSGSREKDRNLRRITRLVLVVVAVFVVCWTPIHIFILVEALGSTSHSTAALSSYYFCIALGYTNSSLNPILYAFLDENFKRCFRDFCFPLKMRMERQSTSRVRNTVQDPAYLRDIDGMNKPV
UniProt P35372, whole entry: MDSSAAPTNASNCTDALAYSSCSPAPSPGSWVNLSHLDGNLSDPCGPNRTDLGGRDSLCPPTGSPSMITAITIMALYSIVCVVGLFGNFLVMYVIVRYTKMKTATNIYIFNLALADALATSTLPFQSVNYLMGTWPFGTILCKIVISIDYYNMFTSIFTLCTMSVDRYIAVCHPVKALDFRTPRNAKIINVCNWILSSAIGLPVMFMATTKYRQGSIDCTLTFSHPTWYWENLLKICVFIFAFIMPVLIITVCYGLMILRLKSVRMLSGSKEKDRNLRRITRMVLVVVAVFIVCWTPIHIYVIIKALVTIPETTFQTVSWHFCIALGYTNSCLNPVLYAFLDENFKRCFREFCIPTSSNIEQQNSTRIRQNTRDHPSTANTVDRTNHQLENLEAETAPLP
UniProt P41143, whole entry, looked up: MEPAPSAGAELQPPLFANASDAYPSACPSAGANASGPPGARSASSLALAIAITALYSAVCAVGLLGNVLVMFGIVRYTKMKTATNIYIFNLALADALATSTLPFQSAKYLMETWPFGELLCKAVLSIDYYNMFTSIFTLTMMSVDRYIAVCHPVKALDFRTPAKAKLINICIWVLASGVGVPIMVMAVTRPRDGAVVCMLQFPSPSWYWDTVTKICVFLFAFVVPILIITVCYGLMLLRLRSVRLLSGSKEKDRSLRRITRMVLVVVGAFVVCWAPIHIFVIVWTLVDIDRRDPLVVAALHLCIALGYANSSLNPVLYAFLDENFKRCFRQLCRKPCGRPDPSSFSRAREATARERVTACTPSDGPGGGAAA

Assays:
[1] = molecular target: Kappa-type opioid receptor (Homo sapiens, UniProt P41145); test: Inhibitory activity in stimulating [35S]-GTP-gamma S binding mediated by the Opioid receptor kappa 1 in chinese Hamster Ovary (CHO) cell membranes was determined; type: functional
[2] = molecular target: Mu-type opioid receptor (Homo sapiens, UniProt P35372); test: Inhibitory activity against Opioid receptor mu 1 in chinese Hamster Ovary (CHO) cells membranes was determined using [3H]-DAMGO radioligand; type: cell-based
[3] = molecular target: Opioid receptors; delta & kappa (Homo sapiens) (UniProt P41145+P41143); test: Selective inhibitory activity was determined against kappa & delta opioid receptor in chinese Hamster Ovary (CHO) cell membranes
[4] = molecular target: Opioid receptors; mu & kappa (Homo sapiens) (UniProt P41145+P35372); test: Selective inhibitory activity was determined against kappa & mu opioid receptor in chinese Hamster Ovary (CHO) cell membranes

SMILES | EC50 [1] [nM] | Ki [2] [nM] | Selectivity [3] | Selectivity [4]
Oc1ccc2c(c1)[C@@]13CCCC[C@H]1[C@@H](C2)N(CC1CC1)CC3 [CYCLORPHAN] | 0.19 |  |  | 
CN1CC[C@]23CCCC[C@H]2[C@H]1Cc1ccc(O)cc13 [LEVORPHANOL] |  | 0.21 | 2 | 0.09
Oc1ccc2c(c1)[C@@]13CCCC[C@H]1[C@@H](C2)N(CC1CCC1)CC3 [BUTORPHAN] |  |  | 70 | 3
